Experimental data published in US20130237511A1, “Copper Ion Delivery Platform for Pharmaceutical Agents” (University System of Georgia, priority 2012, published 2013).

Test system: National Cancer Institute 60 cancer cell line panel
Experiment: NCI 60 cell line panel, single dose run, average over panel
Format: cell-based
Details: average over NCI 60 cell line panel

copper(II)-(quinine)2^+ [CuQ2]
average growth rate of the cancer cells compared to the controls: 103.70%
